Read-outs that look alike come from different tables or passages of the source.
Target: human P-selectin (Homo sapiens, UniProt P16109)
Test: Competition ELISA: SH31-peroxidase (SH31-PO) binding, purified Ugi products
Conditions: read-out: IC50, inhibition of SH31-PO binding to human P-selectin, purified compounds, separated isomers, initial tests
Experimental: Next, the most promising compounds were purified and the isomers were separated in order to establish IC50-values. […] The assay is currently being optimised for the Trp-compounds. Finally, several further compounds were prepared, based on the most promising structures to establish the influence of the various substituents, and tested.
Purified Ugi products were assayed for its ability to inhibit SH31-peroxidase (SH31-PO) binding to human P-selectin. SH31-PO, a tetrameric SH31/strepPO complex was freshly prepared by incubating streptavidin-PO (Amersham Life Science, Little Chalfont, UK; 5.0 μl 2.0 μM) and SH31-biotin (biotin-[…] , 1.5 μl 190 μM) for 2 hours at room temperature in assay buffer (20 mM HEPES, 150 mM NaCl, 1 mM CaCl2, pH 7.4). For competition studies, a 96 wells microtiter plate (high binding, flat bottom, Costar, Corning, U.S.A.) was coated overnight at 4° C. with 10 μg/ml goat anti-human IgG (Fc specific; Sigma-Aldrich, Zwijndrecht, the Netherlands) in coating buffer (50 mM NaHCO3, pH 9.6). Subsequently, wells were washed with assay buffer and incubated for 1 hour at 37° C. with blocking buffer (3% BSA in assay buffer). After washing with assay buffer, the wells were incubated for 2 hours at 37° C. with human P-selectin IgG-Fc chimera (R&D Systems Europe Ltd., Abingdon, United Kingdom; 0.3 μg/ml). Subsequently, wells were washed with assay buffer and incubated for 1 hour at 4° C. with the SH31-PO complex with or without Ugi products (range 0.4-100 μM). The wells were washed six times with easy buffer and substrate (3,3′,5,5′-tetramethylbenzine (TMB)/H2O2; Pierce, Rockford, USA) was added and wells were incubated at room temperature for 15 minutes. The reaction was halted by addition of 2 M of H2SO4 and the absorbance was measured at 450 nm. IC50s for tested compounds are listed in FIG. 3 together with their chemical structure.

The chains behind the UniProt entries cited, without tags or fusion partners. A line that says so, or that is headed by a name, gives the form on record, which may keep a tag or linker. Residues count along the entry.
UniProt P16109, 42-771 with tags or gaps limits assumed: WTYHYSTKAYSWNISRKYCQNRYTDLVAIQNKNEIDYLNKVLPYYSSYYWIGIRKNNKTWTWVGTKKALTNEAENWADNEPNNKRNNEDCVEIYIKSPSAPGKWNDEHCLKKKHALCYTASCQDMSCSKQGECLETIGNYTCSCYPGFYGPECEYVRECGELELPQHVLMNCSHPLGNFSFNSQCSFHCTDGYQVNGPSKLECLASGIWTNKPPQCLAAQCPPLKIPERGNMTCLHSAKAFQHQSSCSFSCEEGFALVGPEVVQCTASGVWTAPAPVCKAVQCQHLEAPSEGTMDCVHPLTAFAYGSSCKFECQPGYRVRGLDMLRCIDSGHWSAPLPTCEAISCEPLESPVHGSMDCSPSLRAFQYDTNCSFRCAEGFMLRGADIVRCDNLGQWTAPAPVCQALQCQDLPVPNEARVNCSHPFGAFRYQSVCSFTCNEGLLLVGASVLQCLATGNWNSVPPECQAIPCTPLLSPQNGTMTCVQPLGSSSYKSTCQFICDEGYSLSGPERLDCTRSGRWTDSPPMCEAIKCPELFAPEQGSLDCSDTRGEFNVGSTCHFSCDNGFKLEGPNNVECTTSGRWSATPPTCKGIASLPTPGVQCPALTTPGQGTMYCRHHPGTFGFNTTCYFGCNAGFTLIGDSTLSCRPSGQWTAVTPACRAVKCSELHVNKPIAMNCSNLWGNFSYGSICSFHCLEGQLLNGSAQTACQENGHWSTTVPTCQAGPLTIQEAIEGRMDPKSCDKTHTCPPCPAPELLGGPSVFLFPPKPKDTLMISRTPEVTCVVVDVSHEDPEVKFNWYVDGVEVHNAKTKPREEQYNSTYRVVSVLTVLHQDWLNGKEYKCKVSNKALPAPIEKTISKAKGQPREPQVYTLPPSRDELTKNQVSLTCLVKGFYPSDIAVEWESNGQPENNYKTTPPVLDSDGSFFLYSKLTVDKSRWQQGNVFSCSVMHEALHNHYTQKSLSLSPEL

SMILES: CCC(C(=O)NCCC(=O)O)N(C(=O)c1cc(O)c(O)c(O)c1)[C@@H](Cc1ccccc1)C(=O)O (single isomer, unassigned)
- IC50 (Isomer 1): 12 µM
- IC50 (Isomer 2): 5 µM

SMILES: CCC(C(=O)N[C@@H](CCC(=O)O)C(=O)O)N(C(=O)c1cc(O)c(O)c(O)c1)[C@@H](Cc1ccccc1)C(=O)O (single isomer, unassigned)
- IC50 (Isomer 1): 18 µM
- IC50 (Isomer 2): 8 µM
